Biological target: T1, C5a1 (Homo sapiens, UniProt P21730)
T1 construct: the receptors for both C3a and C5a are expressed in HMDM; endogenous in cells; host or cells: human monocyte-derived macrophages (HMDM)
T1 sequence (P21730 1-350): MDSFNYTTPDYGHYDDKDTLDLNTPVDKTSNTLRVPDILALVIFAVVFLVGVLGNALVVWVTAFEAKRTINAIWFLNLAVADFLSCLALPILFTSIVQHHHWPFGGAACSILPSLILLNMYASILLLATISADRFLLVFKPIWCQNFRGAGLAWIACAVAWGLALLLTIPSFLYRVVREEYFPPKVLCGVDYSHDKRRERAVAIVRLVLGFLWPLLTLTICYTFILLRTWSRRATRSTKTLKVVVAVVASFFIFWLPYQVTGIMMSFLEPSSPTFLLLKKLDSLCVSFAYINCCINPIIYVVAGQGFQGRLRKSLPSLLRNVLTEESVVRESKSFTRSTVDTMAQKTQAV
Test: xCELLigence, antagonism of peptide-evoked response by C5a1 antagonist PMX53 in HMDM
Assay type: cell-based
Conditions: peptides 20, 31, 47, 49, 54 at EC50 concentrations, PMX53 pre-incubated 1 h, n=3–5
Experimental: HMDM were seeded overnight at 30,000 cells/well in 384-well E-Plates (Roche). Approximately 24 h later, HMDM media were exchanged for serum-free IMDM and equilibrated at 37 °C and 5% CO2 for 2 h prior to ligand addition. Ligands were prepared at a final DMSO concentration of 0.5% (or less) in serum-free IMDM. Antagonists PMX53 and SB 290157 were incubated for 1 h prior to agonist addition, at concentration ranges known to cause substantial inhibition of receptor activation in these cells. After agonist addition, measurements were taken continuously for ~1.5 h at 37 °C. The RTCA software was used for data analysis, with statistical analysis using GraphPad Prism 5.0c (GraphPAD Software Inc., San Diego, CA).
Using the xCELLigence, the hits were tested in the presence of both the C3a receptor and C5a1 antagonists, SB 290157 and PMX53, respectively (see Fig. 1C and D). […] The IC50 of SB 290157 in the presence of peptides 20, 31, 47, 49 and 54 is highlighted in Table 1. […] The xCELLigence activation profiles are depicted in Fig. 2, where all the peptides even at a very high dose (100 µM) have a monophasic profile more similar to that of C3a than of C5a. Despite some being partial agonists at the C3a receptor, none of the peptides were able to antagonize C3a activation of HMDM when tested at 10 µM (data not shown).

change of peptide-evoked cell index in the presence of PMX53: No change
Substance: AcPhe[Lornithine-Pro-D-cyclohexylalanine-Trp-Arg] (sidechain bridge or staple) [PMX53, cyclic C5a1 antagonist]
